Results: patent US10821115B2, “Compounds that inhibit Mcl-1 protein” (priority 2017, dated 2020)

Chains of the proteins cited; added tags and fusions are not shown. Residues count along the entry.
UniProt Q07820, 171-327: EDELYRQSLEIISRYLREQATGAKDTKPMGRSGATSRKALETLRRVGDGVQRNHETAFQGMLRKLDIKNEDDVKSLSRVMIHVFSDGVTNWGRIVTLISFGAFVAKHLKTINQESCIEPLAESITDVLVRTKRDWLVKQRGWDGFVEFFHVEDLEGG

How the values were obtained:
[1] = system: human multiple myeloma cell line, OPM-2; assay: Cell viability assay (OPM-2 10 FBS), CellTiter-Glo; assay type: cell-based; conditions: OPM-2, 16 h
Procedure: Cell viability assay (OPM-2 10 FBS)
The human multiple myeloma cell line, OPM-2, was cultured in complete growth medium containing RPMI 1640 and 10% fetal bovine serum (FBS). Cells were seeded into 384-well plates at 3000 cells/well density in complete growth medium containing 10% FBS, and incubated for 16 h with serially diluted test compounds in a 37° C. incubator with 5% CO2. Cell viability was tested using CellTiter-Glo® assay (Promega, Madison, Wis.) according to the manufacturer recommendations. Luminescence was determined using an EnVision® Multilabel plate reader 25 min after the addition of detection reagent. IC50 values were then calculated with Xlfit using a logistical 4-parameter fit model in GraphPad Prism (GraphPad Software, San Diego, Calif.) or in Genedata Screener® (Genedata, Basel, Switzerland).

[2] = target: recombinant human Mcl-1 (residues 171-327) / Bim interaction (Homo sapiens (Human), UniProt Q07820); assay: biochemical; assay type: binding
[3] = read-out: OPM-2 10% FBS IC50 IP, OPM-2 cells, 10% FBS, 16 h incubation
[4] = 0.1 nM Mcl-1(171-327), 0.05 nM biotin-Bim (51-76), read-out: Mcl-1 HTRF IC50
[5] = TR-FRET, Mcl-1(171-327) / biotin-Bim (51-76), read-out: Mcl-1 HTRF IC50
[6] = read-out: OPM-2 10% FBS IC50 IP, OPM-2 cells, 10% FBS, 16 h, CellTiter-Glo

SMILES: C[C@@H]1[C@@H](C)C/C=C/[C@@](O)(CN2CCOCC2)[C@@H]2CC[C@H]2CN2C[C@@]3(CCCc4cc(Cl)ccc43)COc3ccc(cc32)C(=O)NS1(=O)=O (single isomer, unassigned) [Example 194]
IC50 [1, 3]: 54 nM

SMILES: CO[C@]1(c2ccccn2)/C=C/C[C@H](C)[C@@H](C)S(=O)(=O)NC(=O)c2ccc3c(c2)N(C[C@@H]2CC[C@H]21)C[C@@]1(CCCc2cc(Cl)ccc21)CO3 (single isomer, unassigned) [Example 100321]
IC50 ([2]; Mcl-1 HTRF IC50, TR-FRET, Mcl-1(171-327) / biotin-Bim (51-76)): 0.209 nM

SMILES: CO[C@@]1(CNCCN2CCOCC2)/C=C/C[C@H](C)[C@@H](C)S(=O)(=O)NC(=O)c2ccc3c(c2)N(C[C@@H]2CC[C@H]21)C[C@@]1(CCCc2cc(Cl)ccc21)CO3 [Example 34, (1 S,3′R,6′R,7′S,8′E,11′S,12′R)-6-chloro-7′-methoxy-11′,12′-dimethyl-7′-(((2-(4-morpholinyl)ethyl)amino)methyl)-3,4-dihydro-2H, 15′H-spiro[naphthalene-1,22′-[20]oxa[13]thia[1,14]diazatetracyclo[14.7.2.0˜3,6˜.0˜19,24˜]pentacosa[8,16,18,24]tetraen]-15′-one 13′,13′-dioxide]
IC50 [2, 4]: 0.495 nM

SMILES: CO[C@]1(CNCCN2CCOCC2)/C=C/C[C@H](C)[C@@H](C)S(=O)(=O)NC(=O)c2ccc3c(c2)N(C[C@@H]2CC[C@H]21)C[C@@]1(CCCc2cc(Cl)ccc21)CO3 [Example 36, (1S,3′R,6′R,7′R,8′E,11′S,12′R)-6-chloro-7′-methoxy-11′,12′-dimethyl-7′-(((2-(4-morpholinyl)ethyl)amino)methyl)-3,4-dihydro-2H,15′H-spiro[naphthalene-1,22′-[20]oxa[13]thia[1,14]diazatetracyclo [14.7.2.0~3,6~.0~19,24~]pentacosa[8,16,18,24]tetraen]-15′-one 13′,13′-dioxide]
IC50 [2, 4]: 0.554 nM

SMILES: CCO[C@@]1(CN2CCN3CCOC[C@@H]3C2)/C=C/C[C@H](C)[C@@H](C)S(=O)(=O)NC(=O)c2ccc3c(c2)N(C[C@@H]2CC[C@H]21)C[C@@]1(CCCc2ccccc21)CO3 [Example 105, (1S,3′R,6′R,7′S,8′E,11′S,12′R)-7′-ethoxy-7′-((9aS)-hexahydropyrazino[2,1-c][1,4]oxazin-8(1H)-ylmethyl)-11′,12′-dimethyl-3,4-dihydro-2H, 15′H-spiro[naphthalene-1,22′-[20]oxa[13]thia[1,14]diazatetracyclo[14.7.2.0-3,6˜.0˜19,24˜]pentacosa[8,16,18,24]tetraen]-15′-one 13′,13′-dioxide]
IC50 [1, 3]: 655 nM

SMILES: CC(C)N1CCO[C@]2(/C=C/C[C@H](C)[C@@H](C)S(=O)(=O)NC(=O)c3ccc4c(c3)N(C[C@@H]3CC[C@H]32)C[C@@]2(CCCc3cc(Cl)ccc32)CO4)C1 [Example 127, (1 S,3′R,6′R,7′S,8′E, 11′S,12′R)-6-chloro-11′,12′-dimethyl-4″-(1-methylethyl)-3,4-dihydro-2H,15′H-dispiro[naphthalene-1,22′-[20]oxa[13]thia[1,14]diazatetracyclo[14.7.2.0-3,6˜.0˜19,24˜]pentacosa[8,16,18,24]tetraene-7′,2″-[1,4]oxazinan]-15′-one 13′,13′-dioxide]
IC50 [1, 3]: 6120 nM

IC50 [1, 3]: 554 nM
SMILES: CO[C@]1(CN2C[C@H]3CCCCN3CC2=O)/C=C/C[C@H](C)[C@@H](C)S(=O)(=O)NC(=O)c2ccc3c(c2)N(C[C@@H]2CC[C@H]21)C[C@@]1(CCCc2cc(Cl)ccc21)CO3 [Example 154, (1 S,3′R,6′R,7′R,8′E,11′S,12′R)-6-chloro-7′-methoxy-11′,12′-dimethyl-7′-(((9aR)-3-oxooctahydro-2H-pyrido[1,2-a]pyrazin-2-yl)methyl)-3,4-dihydro-2H,15′H-spiro[naphthalene-1,22′-[20]oxa[13]thia[1,14]diazatetracyclo[14.7.2.0-3,6˜.0˜19,24˜]pentacosa[8,16,18,24]tetraen]-15′-one 13′,13′-dioxide]

SMILES: CO[C@@]1(CN2CCN(C(C)C)CC2)/C=C/C[C@H](C)[C@@H](C)S(=O)(=O)NC(=O)c2ccc3c(c2)N(C[C@@H]2CC[C@H]21)C[C@@]1(CCCc2cc(Cl)ccc21)CO3 [Example 239, (1S,3′R,6′R,7′S,8′E,11′S,12′R)-6-chloro-7′-methoxy-11′,12′-dimethyl-7′-((4-(1-methylethyl)-1-piperazinyl)methyl)-3,4-dihydro-2H,15′H-spiro[naphthalene-1,22′-[20]oxa[13]thia[1,14]diazatetracyclo [14.7.2.0~3,6~.0~19,24~]pentacosa[8,16,18,24]tetraen]-15′-one 13′,13′-dioxide]
IC50 [2, 4]: 0.146 nM

SMILES: C[C@@H]1CS(=O)(=O)NC(=O)c2ccc3c(c2)N(C[C@@H]2CC[C@H]2[C@](O)(CN2CCN4CCOC[C@@H]4C2)CC[C@@H]1C)C[C@@]1(CCCc2cc(Cl)ccc21)CO3 [Example 405, (1S,3′R,6′R,7′S,10′S,11′S)-6-chloro-7′-((9aS)-hexahydropyrazino[2,1-c][1,4]oxazin-8(1H)-ylmethyl)-7′-hydroxy-10′,11′-dimethyl-3,4-dihydro-2H, 15′H-spiro[naphthalene-1,22′-[20]oxa[13]thia[1,14]diazatetracyclo[14.7.2.0-3,6˜.0˜19,24˜]pentacosa[16,18,24]trien]-15′-one 13′,13′-dioxide]
IC50 [1, 3]: 18 nM

SMILES: CCO[C@]1(CN2CCN(C(C)C)[C@H](C)C2)CCC[C@H](C)[C@@H](CCOC)S(=O)(=O)NC(=O)c2ccc3c(c2)N(C[C@@H]2CC[C@H]21)C[C@@]1(CCCc2cc(Cl)ccc21)CO3 [Example 519, (1S,3′R,6′R,7′R,11′S,12′R)-6-chloro-7′-ethoxy-12′-(2-methoxyethyl)-11′-methyl-7′-(((3R)-3-methyl-4-(2-propanyl)-1-piperazinyl)methyl)-3,4-dihydro-2H, 15′H-spiro[naphthalene-1,22′-[20]oxa[13]thia[1,14]diazatetracyclo[14.7.2.0-3,6˜.0˜19,24˜]pentacosa[16,18,24]trien]-15′-one 13′,13′-dioxide]
IC50 [1, 3]: 116 nM

SMILES: CO[C@@]1(c2ccccn2)/C=C/C[C@H](C)[C@@H](C)S(=O)(=O)NC(=O)c2ccc3c(c2)N(C[C@@H]2CC[C@H]21)C[C@@]1(CCCc2cc(Cl)ccc21)CO3 [Example 100003, (1 S,3′R,6′R,7′S,8′E,11′S, 12′R)-6-chloro-7′-methoxy-11′,12′-dimethyl-7′-(2-pyridinyl)-3,4-dihydro-2H, 15′H-spiro[naphthalene-1,22′ [20]oxa[13]thia[1,14]diazatetracyclo[14.7.2.0-3,6˜.0˜19,24˜]pentacosa[8,16,18,24]tetraen]-15′-one 13′,13′-dioxide]
IC50 [2, 5]: 0.42 nM

SMILES: C[C@@H]1[C@@H](C)C/C=C/[C@@](O)(CO)[C@@H]2CC[C@H]2CN2C[C@@]3(CCCc4cc(Cl)ccc43)COc3ccc(cc32)C(=O)NS1(=O)=O [Example 100231, (1S,3′R,6′R,7′S,8′E,11′S,12′R)-6-chloro-7′-hydroxy-7′-(hydroxymethyl)-11′,12′-dimethyl-3,4-dihydro-2H,15′H-spiro[naphthalene-1,22′-[20]oxa[13]thia[1,14]diazatetracyclo [14.7.2.0~3,6~.0~19,24~]pentacosa[8,16,18,24]tetraen]-15′-one 13′,13′-dioxide]
IC50 [2, 5]: 0.312 nM

SMILES: C[C@@H]1[C@@H](C)C/C=C/[C@@](O)(CO)[C@@H]2CC[C@H]2CN2C[C@@]3(CCCc4cc(Cl)ccc43)COc3ccc(cc32)C(=O)NS1(=O)=O [Example 100262, (1S,3′R,6′R,7′S,8′E,11′S,12′R)-6-chloro-7′-hydroxy-7′-(hydroxymethyl)-11′,12′-dimethyl-3,4-dihydro-2H,15′H-spiro[naphthalene-1,22′-[20]oxa[13]thia[1,14]diazatetracyclo [14.7.2.0~3,6~.0~19,24~]pentacosa[8,16,18,24]tetraen]-15′-one 13′,13′-dioxide]
IC50 [2, 5]: 0.134 nM

SMILES: CO[C@@]1(CCN(C)C2CCCC2)/C=C/C[C@H](C)[C@@H](C)S(=O)(=O)NC(=O)c2ccc3c(c2)N(C[C@@H]2CC[C@H]21)C[C@@]1(CCCc2cc(Cl)ccc21)CO3 [Example 100418, (1S,3′R,6′R,7′S,8′E,11′S,12′R)-6-chloro-7′-(2-(cyclopentyl(methyl)amino)ethyl)-7′-methoxy-11′,12′-dimethyl-3,4-dihydro-2H,15′H-spiro[naphthalene-1,22′-[20]oxa[13]thia[1,14]diazatetracyclo [14.7.2.0~3,6~.0~19,24~]pentacosa[8,16,18,24]tetraen]-15′-one 13′,13′-dioxide]
IC50 [1, 6]: 141 nM

SMILES: C[C@@H]1[C@@H](C)C/C=C/[C@@](O)(C#CCCCN2CCOCC2)[C@@H]2CC[C@H]2CN2C[C@@]3(CCCc4cc(Cl)ccc43)COc3ccc(cc32)C(=O)NS1(=O)=O [Example 100493, (1S,3′R,6′R,7′S,8′E,11′S,12′R)-6-chloro-7′-hydroxy-11′,12′-dimethyl-7′-(5-(4-morpholinyl)-1-pentyn-1-yl)-3,4-dihydro-2H,15′H-spiro[naphthalene-1,22′-[20]oxa[13]thia[1,14]diazatetracyclo [14.7.2.0~3,6~.0~19,24~]pentacosa[8,16,18,24]tetraen]-15′-one 13′,13′-dioxide]
IC50 [1, 6]: 512 nM

Read-outs that look alike come from different tables or passages of the source. Each block holds one compound with its values, some of them ahead of it.
